AlphaSeq binding of Ab-14 light chain variants to a spike HR2 peptide

Source: Engelhart et al. 2022 (doi:10.1038/s41597-022-01779-4), MIT Lincoln Laboratory and A-Alpha Bio; data file from the FLAb repository.

Antigen: PDVDLGDISGINAS, a 14-residue peptide of the SARS-CoV-2 spike HR2 region.

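Phage display of a naive human antibody library on the peptide gave the parent. The library (AAYL50) carries one to three amino acid substitutions per variant, with no insertions or deletions. AlphaSeq pools MATa yeast showing the antibodies with MATalpha yeast showing the peptide. Binding brings cells together so that they mate, and sequencing counts the barcode pairs among the diploids. Read counts were normalised to the haploid input and turned into Kd by a linear fit to BCL2-family pairs of known affinity, for each replicate. Each pool was mated in three replicate cultures.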

Each scFv is VH, a (GGGGS)3 linker, VL, as in the parent Ab-14, and differs from it in the CDRs of the light chain only.
VH: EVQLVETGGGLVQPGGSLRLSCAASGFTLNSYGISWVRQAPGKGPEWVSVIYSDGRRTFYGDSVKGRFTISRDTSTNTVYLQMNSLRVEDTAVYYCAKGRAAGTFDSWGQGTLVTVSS
VL: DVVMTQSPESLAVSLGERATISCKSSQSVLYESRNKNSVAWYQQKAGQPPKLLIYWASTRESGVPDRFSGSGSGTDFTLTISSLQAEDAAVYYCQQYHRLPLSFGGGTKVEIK

Changes read parent residue, position, new residue, counted from the first residue of the VL shown. Every variant below is changed at L102 of the VL (sequential numbering). Values are log10 of the apparent Kd in nM; lower means stronger binding. A pair that was not seen in that replicate is written "nd"; this usually means weak binding, but a binder can also be missed. For reference, the parent read 0.65 as the reference entry and 1.68 as a member of this library. Nonspecific signal, from three strains lacking the peptide, appeared in 18% of pairings of library AAYL50, centred on 4.19 (5% of these signals below 2.99); values are not corrected for it. Also given: how often the same scFv was detected with the empty control strains.

With A40I+L102C+S103W the result was 5.46, nd, nd (controls 4 of 9). For A57N+L102S, the assay gave 4.79, 4.92, 3.99 (controls 3 of 9). The variant L30T+L102F gave 0.68, 1.03, 0.95 (controls 2 of 9). The variant V39C+E61S+L102E gave nd, nd, nd (controls 2 of 9). The variant L30T+S58C+L102H showed nd, nd, nd (controls 0 of 9). For K36F+S38H+L102M, the assay gave 4.83, nd, nd (controls 1 of 9). The variant Y31P+P101F+L102F showed 0.57, 0.69, 0.59 (controls 2 of 9).

For K36W+L102G, the assay gave 1.20, 1.18, 1.14 (controls 2 of 9). For S26P+Q27R+L102N, the assay gave 1.50, 1.14, 1.48 (controls 0 of 9). For T59I+Q95G+L102A, the assay gave 1.07, 1.16, 1.22 (controls 2 of 9). The variant Y31V+L100Y+L102Y showed nd, nd, nd (controls 0 of 9). The variant S25V+Q27W+L102M showed 1.77, 1.65, 1.60 (controls 5 of 9). For E61W+Q96P+L102Q, the assay gave nd, 3.14, 3.61 (controls 0 of 9). With R34K+L102P the result was nd, nd, nd (controls 1 of 9).

The variant S33L+R60G+L102S gave nd, nd, nd (controls 0 of 9). For L102Q+S103T, the assay gave nd, nd, nd (controls 0 of 9). The variant V29P+S58K+L102D gave nd, nd, nd (controls 0 of 9). With V29Y+L102Q+S103Q the result was nd, 4.53, nd (controls 3 of 9). For L30Y+K36V+L102A, the assay gave nd, nd, 2.32 (controls 1 of 9). For E61L+L100Q+L102M, the assay gave 1.05, 1.15, 1.14 (controls 1 of 9). The variant T59P+L102M showed nd, nd, nd (controls 2 of 9).

The variant S28F+N37P+L102M showed nd, nd, 3.95 (controls 2 of 9). For Q96F+L100W+L102F, the assay gave 1.59, 1.20, 1.28 (controls 5 of 9). With E32I+N35W+L102V the result was nd, nd, nd (controls 0 of 9). The variant A40D+S62I+L102H gave nd, nd, nd (controls 1 of 9). The variant S58F+E61A+L102K showed 2.48, 2.09, 1.99 (controls 3 of 9). The variant S26A+Q95T+L102Y showed nd, nd, nd (controls 1 of 9). The variant T59V+H98G+L102G gave nd, nd, nd (controls 1 of 9).

The variant E32V+L102S showed 3.91, nd, nd (controls 1 of 9). The variant E32N+R34E+L102W showed 4.52, nd, 3.88 (controls 3 of 9). The variant L30Q+E61P+L102Q gave 5.23, nd, 4.80 (controls 4 of 9). The variant S58H+H98M+L102F showed 2.48, 2.70, 2.67 (controls 1 of 9). The variant L100G+L102K gave 0.99, 0.95, 1.06 (controls 0 of 9). With V29L+P101R+L102Q the result was 3.94, nd, nd (controls 0 of 9). The variant R60E+Q96F+L102F gave nd, nd, nd (controls 1 of 9).

With S28I+L102C the result was nd, 3.89, nd (controls 0 of 9). The variant E61T+Q96S+L102R showed 1.19, 1.14, 1.24 (controls 3 of 9). The variant Y97F+H98A+L102N showed nd, nd, nd (controls 0 of 9). The variant L30Y+S33E+L102Q gave nd, nd, 3.45 (controls 1 of 9). With W56T+T59W+L102D the result was nd, nd, nd (controls 0 of 9).

Picked from the list: the 5 lowest averages where every replicate gave a value.

With Y31P+P101F+L102F the result was 0.57, 0.69, 0.59 (controls 2 of 9).
With L30T+L102F the result was 0.68, 1.03, 0.95 (controls 2 of 9).
With L100G+L102K the result was 0.99, 0.95, 1.06 (controls 0 of 9).
With E61L+L100Q+L102M the result was 1.05, 1.15, 1.14 (controls 1 of 9).
With T59I+Q95G+L102A the result was 1.07, 1.16, 1.22 (controls 2 of 9).